Measured values reported in ChEMBL document CHEMBL1156754, “Human P2Y(14) receptor agonists: truncation of the hexose moiety of uridine-5'-diphosphoglucose and its replacement with alkyl and aryl groups” (J Med Chem, 2010).

Species on record: Homo sapiens
Assay: Selectivity, ratio of EC50 for human P2Y6 receptor to EC50 for human P2Y14 receptor

## O=c1ccn([C@@H]2O[C@H](COP(=O)(O)C(F)(F)P(=O)(O)O)[C@@H](O)[C@H]2O)c(=O)[nH]1
  Ratio EC50: > 2000
